Legend:
[1] = species on record: Homo sapiens; assay: Selectivity index, ratio of IC50 for inhibition of recombinant N-terminal GST/His6-fusion tagged human CDK12/Cyclin K to IC50 for inhibition of recombinant full length N-terminal GST/His6-fusion tagged human CDK9/Cyclin T1
[2] = species on record: Homo sapiens; assay: Selectivity index, ratio of IC50 for inhibition of recombinant N-terminal GST/His6-fusion tagged human CDK2/Cyclin E2 to IC50 for inhibition of recombinant full length N-terminal GST/His6-fusion tagged human CDK9/Cyclin T1
[3] = species on record: Homo sapiens; assay: Selectivity index, ratio of IC50 for inhibition of recombinant N-terminal GST/His6-fusion tagged human CDK3/Cyclin E to IC50 for inhibition of recombinant full length N-terminal GST/His6-fusion tagged human CDK9/Cyclin T1
[4] = species on record: Homo sapiens; assay: Selectivity index, ratio of IC50 for inhibition of recombinant full length N-terminal GST/His6-fusion tagged human CDK5/P25 to IC50 for inhibition of recombinant full length N-terminal GST/His6-fusion tagged human CDK9/Cyclin T1
[5] = species on record: Homo sapiens; assay: Selectivity index, ratio of IC50 for inhibition of recombinant N-terminal GST/His6-fusion tagged human CDK6/Cyclin D3 to IC50 for inhibition of recombinant full length N-terminal GST/His6-fusion tagged human CDK9/Cyclin T1
[6] = species on record: Homo sapiens; assay: Selectivity index, ratio of IC50 for inhibition of CDK7/Cyclin H (unknown origin) to IC50 for inhibition of recombinant full length N-terminal GST/His6-fusion tagged human CDK9/Cyclin T1
[7] = species on record: Homo sapiens; assay: Selectivity index, ratio of IC50 for inhibition of recombinant N-terminal GST/His6-fusion tagged human CDK1/Cyclin B to IC50 for inhibition of recombinant full length N-terminal GST/His6-fusion tagged human CDK9/Cyclin T1
[8] = species on record: Homo sapiens; assay: Selectivity index, ratio of IC50 for inhibition of recombinant N-terminal GST/His6-fusion tagged human CDK13/Cyclin K to IC50 for inhibition of recombinant full length N-terminal GST/His6-fusion tagged human CDK9/Cyclin T1

Measured: Ratio IC50

Cc1nc2c(F)cc(-c3nc(Nc4nccc(Sc5cnc(N6CCC7(CC6)CO[C@@H](C)[C@H]7N)cn5)c4Cl)ncc3F)cc2n1C(C)C
> 10: all assays above

Reference: ChEMBL document CHEMBL5154884, “Discovery of a Novel Src Homology-2 Domain Containing Protein Tyrosine Phosphatase-2 (SHP2) and Cyclin-Dependent Kinase 4 (CDK4) Dual Inhibitor for the Treatment of Triple-Negative Breast Cancer” (J Med Chem, 2022)
